Measurements: patent US20260124309A1, “STAT6 DEGRADERS AND USES THEREOF” (Kymera Therapeutics, Inc., priority 2023, published 2026)

Protein sequences, listed by entry. Tags and fused reporters are not part of them. Residues count along the entry.
UniProt P42226, whole entry: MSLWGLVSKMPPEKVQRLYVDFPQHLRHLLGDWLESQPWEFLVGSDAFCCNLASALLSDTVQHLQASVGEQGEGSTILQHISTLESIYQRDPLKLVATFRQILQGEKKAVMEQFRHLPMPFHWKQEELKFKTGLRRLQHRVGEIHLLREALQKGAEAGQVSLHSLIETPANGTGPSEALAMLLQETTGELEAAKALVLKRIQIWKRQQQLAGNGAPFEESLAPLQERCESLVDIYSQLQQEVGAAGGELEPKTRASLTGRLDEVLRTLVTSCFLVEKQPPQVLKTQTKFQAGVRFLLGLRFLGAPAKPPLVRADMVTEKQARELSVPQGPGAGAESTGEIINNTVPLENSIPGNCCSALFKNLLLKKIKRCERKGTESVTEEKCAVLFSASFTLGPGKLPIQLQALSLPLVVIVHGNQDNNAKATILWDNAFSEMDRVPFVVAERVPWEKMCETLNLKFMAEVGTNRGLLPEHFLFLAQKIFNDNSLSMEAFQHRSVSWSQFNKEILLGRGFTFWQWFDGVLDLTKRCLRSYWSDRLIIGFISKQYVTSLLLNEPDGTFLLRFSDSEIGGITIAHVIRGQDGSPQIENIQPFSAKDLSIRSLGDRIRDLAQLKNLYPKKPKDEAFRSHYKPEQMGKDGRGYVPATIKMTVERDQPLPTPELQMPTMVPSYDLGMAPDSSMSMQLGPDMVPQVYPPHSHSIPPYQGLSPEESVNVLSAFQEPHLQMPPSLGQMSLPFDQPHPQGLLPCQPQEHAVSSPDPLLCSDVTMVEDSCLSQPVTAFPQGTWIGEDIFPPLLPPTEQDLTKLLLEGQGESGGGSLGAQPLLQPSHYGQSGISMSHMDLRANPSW
UniProt P42226, 123-632 limits assumed: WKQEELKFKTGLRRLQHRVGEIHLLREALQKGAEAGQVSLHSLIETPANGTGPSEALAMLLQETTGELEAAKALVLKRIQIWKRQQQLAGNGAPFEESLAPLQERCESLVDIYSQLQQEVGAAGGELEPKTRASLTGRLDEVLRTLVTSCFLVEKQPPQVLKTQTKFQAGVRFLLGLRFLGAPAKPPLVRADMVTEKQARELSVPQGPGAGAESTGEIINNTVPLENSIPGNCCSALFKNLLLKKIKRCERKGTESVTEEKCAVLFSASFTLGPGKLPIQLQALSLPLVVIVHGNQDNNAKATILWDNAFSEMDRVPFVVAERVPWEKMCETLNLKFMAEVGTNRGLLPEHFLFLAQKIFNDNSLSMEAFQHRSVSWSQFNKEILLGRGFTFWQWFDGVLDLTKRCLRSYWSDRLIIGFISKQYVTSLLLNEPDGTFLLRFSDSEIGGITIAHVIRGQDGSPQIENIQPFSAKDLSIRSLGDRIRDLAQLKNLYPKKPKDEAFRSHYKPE

How the values were obtained:
[1] = target: biotinylated truncated STAT6 (123-632)-avi (Homo sapiens, UniProt P42226); assay: STAT6 HTRF binding assay; details: read-out: STAT6 HTRF: Average IC50; HTRF binding, 0.15 nM biotinylated truncated STAT6 (123-632)-avi, 20 nM fluorescein-labeled probe
STAT6 = STAT6 (Homo sapiens, UniProt P42226); assay: STAT6 MSD degradation in A549 cells; details: for DC50: read-out: STAT6 MSD degradation DC50 (nM) 24 h
Procedure, shortened: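 A549 cells treated with a 9-point 1:3 series (top up to 10 uM) for 4 to 24 hours at 37° C., then lysed in RIPA. STAT6 quantified by sandwich MSD electrochemiluminescence immunoassay. DC50 and Dmax from four-parameter nonlinear fit, reported as letter-code bins.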

Row | Structure (SMILES) | IC50 [1] [nM] | STAT6 MSD degradation Dmax % 24 h (STAT6) | DC50 (STAT6) [nM]
1 | Cc1nn(C2CCC(=O)NC2=O)c2cccc(CCN3CCN(c4ccc(-c5cc([C@H]6CCCN(C(=O)CCn7cccn7)C6)c(F)c6[nH]c(C(=O)N(C)C)cc56)c(F)c4F)CC3)c12 (some centres unmarked) | < 100 | A (A (>90%)) | < 1
2 | CN(C)C(=O)c1cc2c(-c3ccc(C4CCN(c5ccc(C6CCC(=O)NC6=O)cc5F)CC4)cc3)cc([C@@H]3CCCN(C(=O)CCn4cccn4)C3)c(F)c2[nH]1 (some centres unmarked) | 10000 to 100000 | B (B (>70-90%)) | 10 to 100
3 | CN(C)C(=O)c1cc2c(-c3ccc(C4CCN(c5ccc(OC6CCC(=O)NC6=O)cc5F)CC4)cc3)cc(C3=CCCN(C(=O)CCn4ccnn4)C3)c(F)c2[nH]1 (centres unmarked) | < 100 | A (A (>90%)) | < 1
4 | Cc1nn(C2CCC(=O)NC2=O)c2cccc(N3CCC(c4ccc(-c5cc([C@H]6CCCN(C(=O)CCn7cccn7)C6)c(F)c6[nH]c(C(=O)N(C)C)cc56)c(F)c4F)CC3)c12 (some centres unmarked) | 100 to 1000 | A (A (>90%)) | 1 to 10
5 | COc1cc(N2CCN(c3cc(F)c(-c4cc(C5=CCCN(C(=O)CCn6cccn6)C5)c(F)c5[nH]c(C(=O)N(C)C)cc45)cc3F)CC2)c(F)cc1NC1CCC(=O)NC1=O (centres unmarked) | < 100 | B (B (>70-90%)) | 1 to 10
6 | CN(C)C(=O)c1cc2c(-c3cc(F)c(N4CCC(c5ccc(NC6CCC(=O)NC6=O)cc5F)CC4)cc3F)cc(C3=CCCN(C(=O)CCn4cccn4)C3)c(F)c2[nH]1 (centres unmarked) | 100 to 1000 | A (A (>90%)) | < 1
7 | CC(=O)N1CCC=C(c2cc(-c3ccc(C4CCN(c5cccc6c5c(C)nn6C5CCC(=O)NC5=O)CC4)cc3C)c3cc(C(=O)N(C)C)[nH]c3c2F)C1 (centres unmarked) | 1000 to 10000 | A (A (>90%)) | 10 to 100
8 | COc1cc(N2CCN(c3cc(F)c(-c4cc([C@H]5CCCN(C(=O)CCn6cccn6)C5)c(F)c5[nH]c(C(=O)N(C)C)cc45)cc3F)CC2)c(F)cc1NC1CCC(=O)NC1=O (some centres unmarked) | < 100 | B (B (>70-90%)) | 1 to 10
9 | CC(C)C(=O)N1CCC=C(c2cc(-c3ccc([C@H]4CCN(CCc5cccc6c(C7CCC(=O)NC7=O)nn(C)c56)CC4(F)F)cc3F)c3cc(C(=O)N(C)C)[nH]c3c2F)C1 (some centres unmarked) | 1000 to 10000 | A (A (>90%)) | < 1
10 | COc1cc([C@H]2CC[C@@H](c3ccc(-c4cc(C5=CCCN(C(=O)CCn6ccnn6)C5)c(F)c5[nH]c(C(=O)N(C)C)cc45)cc3)CC2)c(F)cc1NC1CCC(=O)NC1=O (some centres unmarked) | 100 to 1000 | A (A (>90%)) | < 1
11 | O=C1CCC(c2ccc(N3CCC(c4ccc(-c5cc(C6=CCCN(C(=O)CCn7ccnn7)C6)c(F)c6[nH]ncc56)c(F)c4)CC3)c(F)c2)C(=O)N1 (centres unmarked) | 1000 to 10000 | B (B (>70-90%)) | 10 to 100
12 | COc1cc(N2CC[C@H](c3ccc(-c4cc(C5=CCCN(C(=O)CCn6cccn6)C5)c(F)c5[nH]c(C(=O)N(C)C)cc45)c(C)c3)C(F)(F)C2)c(F)cc1NC1CCC(=O)NC1=O (some centres unmarked) | < 100 | A (A (>90%)) | 1 to 10
13 | COc1cc(N2CCN(c3ccc(-c4cc(C5=CCCN(C(=O)CCn6cccn6)C5)c(F)c5[nH]c(C(=O)N(C)C)cc45)c(Cl)c3F)CC2)c(F)cc1NC1CCC(=O)NC1=O (centres unmarked) | < 100 | A (A (>90%)) | < 1
14 | COc1cc(C2CCN(c3cccc4c3n(C)c(=O)n4C3CCC(=O)NC3=O)CC2)ccc1-c1cc(C2=CCCN(C(C)=O)C2)c(F)c2sc(C(=O)N(C)C)cc12 (centres unmarked) | 1000 to 10000 | C (C (>50-70%)) | 10 to 100
15 | COc1cc(N2CCC(c3ccc(-c4cc(C5=CCCN(C(=O)CCn6cccn6)C5)c(F)c5sc(C(=O)N(C)C)cc45)cc3)CC2)c(F)cc1NC1CCC(=O)NC1=O (centres unmarked) | 1000 to 10000 | B (B (>70-90%)) | 10 to 100
16 | CC(C)C(=O)N1CCC=C(c2cc(-c3cc(F)c(N4CCN(CCc5cccc6c5n(C)c(=O)n6C5CCC(=O)NC5=O)C[C@H]4C)cc3F)c3cc(C(=O)N(C)C)[nH]c3c2F)C1 (some centres unmarked) | 1000 to 10000 | A (A (>90%)) | < 1
17 | CC(C)C(=O)N1CCC=C(c2cc(-c3cc(F)c(N4CCN(CCc5cccc6c5n(C)c(=O)n6C5CCC(=O)NC5=O)CC4)cc3Cl)c3cc(C(=O)N(C)C)[nH]c3c2F)C1 (centres unmarked) | 1000 to 10000 | A (A (>90%)) | < 1
18 | COc1cc(N2CCN(c3cc(F)c(-c4cc([C@@H]5CCCN(C(=O)CCn6cccn6)C5)c(F)c5[nH]c(C(=O)N(C)C)cc45)cc3F)CC2)c(F)cc1NC1CCC(=O)NC1=O (some centres unmarked) | 10000 to 100000 | – | > 1000
